Laboratory results taken from ChEMBL document CHEMBL1124816, “Effect of structure on potency and selectivity in 2,6-disubstituted 4-(2-arylethenyl)phenol lipoxygenase inhibitors” (J Med Chem, 1990).

By UniProt entry, the sequences of proteins in these tests, tags left out. Where a name states a change or a piece, a line headed by the entry shows the natural chain unless it says otherwise.
UniProt P35354: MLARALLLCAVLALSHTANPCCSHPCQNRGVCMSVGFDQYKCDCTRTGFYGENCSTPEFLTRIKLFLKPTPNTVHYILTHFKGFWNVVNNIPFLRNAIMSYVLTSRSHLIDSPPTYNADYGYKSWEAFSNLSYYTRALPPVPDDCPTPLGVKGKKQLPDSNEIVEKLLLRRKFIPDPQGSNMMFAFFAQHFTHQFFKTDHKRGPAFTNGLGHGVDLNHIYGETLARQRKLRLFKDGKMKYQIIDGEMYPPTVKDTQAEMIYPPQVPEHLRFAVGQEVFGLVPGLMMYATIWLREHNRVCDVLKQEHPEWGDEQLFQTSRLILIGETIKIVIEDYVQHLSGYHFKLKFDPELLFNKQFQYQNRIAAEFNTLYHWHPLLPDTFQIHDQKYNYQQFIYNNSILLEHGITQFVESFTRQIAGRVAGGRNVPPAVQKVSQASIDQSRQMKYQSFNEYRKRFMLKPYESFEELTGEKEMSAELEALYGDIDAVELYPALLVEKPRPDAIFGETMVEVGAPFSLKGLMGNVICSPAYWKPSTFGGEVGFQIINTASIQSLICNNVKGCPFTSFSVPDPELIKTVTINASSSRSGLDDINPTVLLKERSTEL
UniProt P23219: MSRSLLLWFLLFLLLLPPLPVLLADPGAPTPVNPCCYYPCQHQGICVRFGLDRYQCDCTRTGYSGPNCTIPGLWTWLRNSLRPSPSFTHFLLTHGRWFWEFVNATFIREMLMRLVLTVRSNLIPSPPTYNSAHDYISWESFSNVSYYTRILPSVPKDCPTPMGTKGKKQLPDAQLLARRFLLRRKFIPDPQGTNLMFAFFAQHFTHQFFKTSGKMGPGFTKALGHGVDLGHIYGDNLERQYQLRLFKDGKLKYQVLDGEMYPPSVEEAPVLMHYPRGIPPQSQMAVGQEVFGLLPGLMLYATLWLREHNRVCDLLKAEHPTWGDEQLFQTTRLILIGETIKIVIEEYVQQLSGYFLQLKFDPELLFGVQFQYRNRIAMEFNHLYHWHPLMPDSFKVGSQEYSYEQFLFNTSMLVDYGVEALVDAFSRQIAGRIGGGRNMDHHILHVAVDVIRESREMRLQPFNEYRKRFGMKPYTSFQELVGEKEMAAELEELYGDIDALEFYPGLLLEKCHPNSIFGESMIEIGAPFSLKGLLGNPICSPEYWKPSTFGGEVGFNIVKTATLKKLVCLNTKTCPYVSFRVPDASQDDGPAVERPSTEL

Biological target: Cyclooxygenase (Homo sapiens, UniProt P35354+P23219)
Assay: Inhibition of human platelet Prostaglandin G/H synthase

SMILES: CC(C)(C)c1cc(/C=C/c2cccnc2)cc(C(C)(C)C)c1O
- IC50: 0.26 µM
